Results published in patent US10729740B2, “Lytic-peptide-Her2/neu (Human Epidermal growth factor Receptor 2) ligand conjugates and methods of use” (Esperance Pharmaceuticals, Inc., priority 2010, dated 2020).

Experiments:
[1] = system: Her2 receptor positive SKBR-3 cancer cells; test: In vitro cytotoxicity, MTT assay, 48 h, SKBR-3; details: read-out: IC50 [nM] SKBR-3, 48 h incubation
Method: (§1) 68) to the antibody at the C-terminus by NRVRRS (SEQ. ID NO. 57) linker). Cytotoxicity was compared to a naked antibody (antibody without a lytic peptide) in Her-2 receptor positive cells (SKBR-3 and SKOV-3, human breast and ovarian cancer cells, respectively) and Her-2 receptor negative breast cancer cells (MDA-MB-231).
(§2) Cells were prepared in 96 well plates using 2,000 cells/well and were allowed to attach for 48 hours. […] All data were processed and analyzed using Graph Pad Prizm 4™ software (Graph Pad Prizm, Inc).

[2] = system: Her2 receptor negative MDA-MB-231 cancer cells; test: In vitro cytotoxicity, MTT assay, 48 h, MDA-MB-231; details: read-out: IC50 [nM] MDA-MB-231, 48 h incubation
Method: as §1, §2

[3] = system: Her2 receptor positive SKOV-3 cancer cells; test: In vitro cytotoxicity, MTT assay, 48 h, SKOV-3; details: read-out: IC50 [nM] SKOV-3, 48 h incubation
Method: as §1, §2

Row | Substance | IC50 [1] [nM] | IC50 [2] [nM] | IC50 [3] [nM]
1 | scFv-CH3-GS-(KLAKLAK)2KLAK (GSKLAKLAKKLAKLAKKLAK) | 246 ± 41 | > 1000 | 235 ± 6.5
2 | scFv-CH3-NRVRRS-(KLAKLAK)2KLAK (NRVRRSKLAKLAKKLAKLAKKLAK) | 338 ± 8.7 | > 1000 | 247 ± 40.5
